## Apparent affinities of Ab-14 variants for a coronavirus HR2 peptide

Values reported by Engelhart et al. 2022, doi:10.1038/s41597-022-01779-4 (FLAb copy).

All variants were tested on one target, the spike HR2 peptide PDVDLGDISGINAS (SARS-CoV-2).

Parent scFv Ab-14: VH joined to VL by a (GGGGS)3 linker. Changes lie in the heavy chain CDRs alone.
VH: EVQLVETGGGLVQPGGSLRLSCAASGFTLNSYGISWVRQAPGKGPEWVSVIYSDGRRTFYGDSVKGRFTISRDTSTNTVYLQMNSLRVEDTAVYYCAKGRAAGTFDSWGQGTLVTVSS
VL: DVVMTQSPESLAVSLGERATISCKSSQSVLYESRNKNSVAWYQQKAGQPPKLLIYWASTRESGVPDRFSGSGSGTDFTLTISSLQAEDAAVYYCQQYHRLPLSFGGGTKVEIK

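Phage display of a naive human antibody library on the peptide gave the parent. The library (AAYL49) carries one to three amino acid substitutions per variant, with no insertions or deletions. AlphaSeq pools MATa yeast showing the antibodies with MATalpha yeast showing the peptide. Pairs that bind mate more often; barcode pairs of the diploids are counted by sequencing. The ratio of observed to expected reads was calibrated, replicate by replicate, on BCL2-family standards whose Kd was known from biolayer interferometry. There are three technical replicates.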

Positions count from residue 1 of the parent VH; Y32D puts D in place of Y.
Affinities are written as log10 Kd with Kd in nM; a lower number is a better binder.
The mean shown is taken over the replicates in which the pair was detected.
An entry "n.d." has no value in the source: the pair was not observed among the diploids in that replicate. This suggests poor binding but is not conclusive.

| # | changes | log10 Kd, replicates | mean, log10 nM | empty controls |
|---|---|---|---|---|
| 1 | Y32D+D106Y+S107K | n.d. / n.d. / 1.79 | 1.79 | 0 of 9 |
| 2 | L29N+Y32R+I51D | n.d. / 3.46 / n.d. | 3.46 | 1 of 9 (5.33) |
| 3 | T58D+R100D+F105T | n.d. / n.d. / 4.31 | 4.31 | 0 of 9 |
| 4 | Y32I+G99R+R100K | n.d. / n.d. / n.d. | n.d. | 1 of 9 (4.61) |
| 5 | Y52M+G55V+G103R | n.d. / n.d. / n.d. | n.d. | 0 of 9 |
| 6 | T28A+S53T+G103C | 2.02 / n.d. / n.d. | 2.02 | 0 of 9 |
| 7 | N30Y+D54N+F59T | n.d. / n.d. / n.d. | n.d. | 0 of 9 |
| 8 | T58L+K65H | n.d. / n.d. / 4.81 | 4.81 | 1 of 9 (3.66) |
| 9 | T104S+D106M | 1.62 / 1.41 / 1.78 | 1.60 | 2 of 9 (4.35) |
| 10 | N30P+I51S+S53C | 5.26 / n.d. / n.d. | 5.26 | 1 of 9 (3.14) |
| 11 | G33E+S53I+R56W | n.d. / n.d. / n.d. | n.d. | 1 of 9 (2.85) |
| 12 | L29F+I51V+R57T | 4.44 / 3.23 / 6.06 | 4.58 | 2 of 9 (4.01) |
| 13 | L29S+I51G+A102E | n.d. / n.d. / n.d. | n.d. | 0 of 9 |
| 14 | V50T+Y52E+G103E | 4.26 / 3.67 / n.d. | 3.97 | 3 of 9 (4.93) |
| 15 | T58V+T104D+F105M | 0.37 / 0.78 / 0.75 | 0.64 | 1 of 9 (4.48) |
| 16 | Y60W+D62W+G99N | n.d. / 3.38 / n.d. | 3.38 | 1 of 9 (2.91) |
| 17 | Y32H+S63G+G99A | 2.47 / 2.20 / 2.52 | 2.40 | 2 of 9 (3.84) |
| 18 | S31G+Y32V+I51A | 6.25 / 3.87 / n.d. | 5.06 | 5 of 9 (4.43) |
| 19 | S53G+A101L+G103I | 2.33 / 1.65 / 2.91 | 2.30 | 0 of 9 |
| 20 | G26M+T58W+S63Y | n.d. / n.d. / n.d. | n.d. | 0 of 9 |
| 21 | G26F+V50Y | 4.07 / 4.61 / n.d. | 4.34 | 0 of 9 |
| 22 | Y32Q+D54P+T104C | n.d. / 4.59 / 4.46 | 4.52 | 4 of 9 (4.15) |
| 23 | G61K+D62S+T104Q | n.d. / 3.17 / n.d. | 3.17 | 0 of 9 |
| 24 | Y32F+S35Q+S107I | n.d. / n.d. / 6.05 | 6.05 | 1 of 9 (3.24) |
| 25 | G26L+I34V+G99L | n.d. / 4.07 / n.d. | 4.07 | 1 of 9 (4.52) |
| 26 | Y52Q+D54N+K65C | n.d. / n.d. / n.d. | n.d. | 2 of 9 (4.15) |
| 27 | D54C+R56T+V64P | n.d. / n.d. / n.d. | n.d. | 3 of 9 (3.09) |
| 28 | S31R+G33T+A102L | n.d. / 3.72 / n.d. | 3.72 | 2 of 9 (3.53) |
| 29 | N30R+I34Q+G99R | n.d. / n.d. / n.d. | n.d. | 1 of 9 (3.58) |
| 30 | I34L+V50C+A101V | 5.02 / n.d. / 4.04 | 4.53 | 2 of 9 (3.97) |
| 31 | Y52M+F59E+K65D | 4.00 / n.d. / 3.71 | 3.86 | 1 of 9 (3.13) |
| 32 | V50I+G61K+K65D | n.d. / 1.72 / n.d. | 1.72 | 0 of 9 |
| 33 | S63T+R100E+A102Y | n.d. / n.d. / n.d. | n.d. | 0 of 9 |
| 34 | G61L+V64M | n.d. / n.d. / 3.89 | 3.89 | 0 of 9 |
| 35 | I34K+K65Q+S107W | n.d. / 3.25 / n.d. | 3.25 | 2 of 9 (4.38) |

Picked from the list: the 5 lowest averages where every replicate gave a value.

| changes | log10 Kd, replicates | mean, log10 nM | empty controls |
|---|---|---|---|
| T58V+T104D+F105M | 0.37 / 0.78 / 0.75 | 0.64 | 1 of 9 (4.48) |
| T104S+D106M | 1.62 / 1.41 / 1.78 | 1.60 | 2 of 9 (4.35) |
| S53G+A101L+G103I | 2.33 / 1.65 / 2.91 | 2.30 | 0 of 9 |
| Y32H+S63G+G99A | 2.47 / 2.20 / 2.52 | 2.40 | 2 of 9 (3.84) |
| L29F+I51V+R57T | 4.44 / 3.23 / 6.06 | 4.58 | 2 of 9 (4.01) |

For reference, the parent read 0.65 as the reference entry and 4.11 (one replicate of three) as a member of this library.
Background: pairings of library AAYL49 with three empty control strains gave a value in 15% of cases (median 4.06, 5th percentile 2.83). Values in that range, when seen in few replicates, are hard to tell from nonspecific mating. Also given: how often the same scFv was detected with the empty control strains, with their mean in brackets.